Source: PMC9414972, “α-Glucosidase and α-Amylase Inhibitory Potentials of Quinoline–1,3,4-oxadiazole Conjugates Bearing 1,2,3-Triazole with Antioxidant Activity, Kinetic Studies, and Computational Validation” (Pharmaceuticals, 2022)

The chains behind the UniProt entries cited, without tags or fusion partners. Where a name states a change or a piece, a line headed by the entry shows the natural chain unless it says otherwise.
UniProt P38158: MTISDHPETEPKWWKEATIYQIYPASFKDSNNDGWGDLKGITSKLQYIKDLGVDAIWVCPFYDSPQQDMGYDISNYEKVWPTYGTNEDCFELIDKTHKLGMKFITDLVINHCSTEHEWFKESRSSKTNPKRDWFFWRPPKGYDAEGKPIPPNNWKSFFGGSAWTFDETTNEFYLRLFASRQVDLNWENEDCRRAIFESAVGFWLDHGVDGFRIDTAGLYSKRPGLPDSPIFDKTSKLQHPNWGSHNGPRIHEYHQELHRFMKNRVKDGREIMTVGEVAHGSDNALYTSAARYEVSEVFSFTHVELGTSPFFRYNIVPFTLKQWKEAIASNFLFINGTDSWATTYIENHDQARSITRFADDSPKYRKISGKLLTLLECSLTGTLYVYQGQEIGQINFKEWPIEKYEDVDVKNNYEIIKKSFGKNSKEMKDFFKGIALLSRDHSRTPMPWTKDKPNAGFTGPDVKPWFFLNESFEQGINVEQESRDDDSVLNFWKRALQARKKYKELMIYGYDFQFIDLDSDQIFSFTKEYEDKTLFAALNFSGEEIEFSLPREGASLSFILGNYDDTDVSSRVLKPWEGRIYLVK

Key:
[1] = molecular target: T1, porcine pancreatic amylase (Sus scrofa, UniProt P00690); test: α-Amylase inhibitory activity (starch/DNS); format: biochemical
T1 construct: purchased Merck
T1 sequence (P00690 16-511): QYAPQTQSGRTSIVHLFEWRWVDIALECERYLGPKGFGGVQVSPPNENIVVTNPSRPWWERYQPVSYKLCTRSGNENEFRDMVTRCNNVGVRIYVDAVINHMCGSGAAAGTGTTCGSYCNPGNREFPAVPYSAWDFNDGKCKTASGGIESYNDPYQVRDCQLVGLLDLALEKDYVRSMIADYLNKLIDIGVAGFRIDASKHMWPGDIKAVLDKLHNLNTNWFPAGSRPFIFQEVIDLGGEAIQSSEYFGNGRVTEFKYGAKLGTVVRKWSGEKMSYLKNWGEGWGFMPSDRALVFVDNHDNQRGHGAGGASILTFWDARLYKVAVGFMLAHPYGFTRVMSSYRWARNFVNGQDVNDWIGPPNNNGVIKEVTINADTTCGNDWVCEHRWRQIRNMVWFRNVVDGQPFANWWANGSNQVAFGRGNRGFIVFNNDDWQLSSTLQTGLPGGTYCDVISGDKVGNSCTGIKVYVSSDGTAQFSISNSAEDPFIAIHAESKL

α-glucosidase = molecular target: T2, α-glucosidase (Saccharomyces cerevisiae, UniProt P38158); test: biochemical
T2 construct: purchased Merck

BrCCSc1nnc(COc2cccc3cccnc23)o1 [4h, 2-[(2-Bromoethyl)thio]-5-[(quinolin-8-yloxy)methyl]-1,3,4-oxadiazole]
IC50 [1]: > 500 µM | IC50 (α-glucosidase): 46.1 µM
